In PubChem BioAssay AID750 (Sanford-Burnham Center for Chemical Genomics, 2007):
The list shows a part of the results, in another mix than the full data. Activity calls are given as the source filed them.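 Rule for the calls: active = activation factor of at least 2 for MT1-MMP transcription at 10 µM; inactive = the rest.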

Experiment: MT1-MMP promoter reporter activation – cell-based, luciferase luminescence, primary screen (AID 750)
Details: HT1080 MT1-MMP promoter luciferase reporter, overnight, at 10 µM, stronger effect = higher value

Compound | activation factor
COc1ccc(OP(C)(=O)Nc2ccccn2)cc1 (configuration not stated) | inactive: 1
CN(C)CCOC(=O)C(O)(c1ccccc1)C1CCCC1 (configuration not stated) | inactive: 1.1
CP(=O)(Nc1ccccn1)Oc1ccccc1 (configuration not stated) | inactive: 1.1
COc1ccccc1OP(C)(=O)Nc1ccc(C)cc1C (configuration not stated) | inactive: 1.1
CCc1ccc(OP(C)(=O)O)cc1 | inactive: 1
Cc1c(NP(C)(=O)Oc2ccc(C(C)C)cc2)c(=O)n(-c2ccccc2)n1C (configuration not stated) | inactive: 1.1
COc1ccccc1OP(C)(=O)Nc1ccc(C)c(C)c1 (configuration not stated) | inactive: 1.2
Cc1nc2ccc3ccccc3c2o1.O=[N+]([O-])c1cc([N+](=O)[O-])c(O)c([N+](=O)[O-])c1 | inactive: 1.6
CP(=O)(OC12CC3CC(CC(C3)C1)C2)OC12CC3CC(CC(C3)C1)C2 | inactive: 1
COc1ccccc1OP(C)(=O)Nc1c(C)n(C)n(-c2ccccc2)c1=O (configuration not stated) | inactive: 1.1
CP(=O)(Oc1ccccc1)N1CCOC1=O (configuration not stated) | inactive: 1.1
CCN(CC)CC(O)COC(=O)C(O)(c1ccccc1)C1CCCCC1 (configuration not stated) | inactive: 1.2
CC(C)(C)c1ccc(OP(C)(=O)O)cc1 | inactive: 1.3
CP(=O)(Nc1ccc(Cl)cc1)Oc1ccc(F)cc1 (configuration not stated) | inactive: 1
CCOP(C)(=S)SCC(=O)NC(C)(CC)C(=O)O (configuration not stated) | inactive: 1.2
Cc1ccccc1NP(C)(=O)Nc1ccccc1C | inactive: 1.2

Compound | activation factor
CP(=O)(Nc1ccc2c(c1)OCCO2)Oc1ccccc1 (configuration not stated) | inactive: 1.2
CN(C)CCOC(=O)C(O)(c1ccccc1)C1CCCCC1 (configuration not stated) | inactive: 1
CP(=O)(Nc1ccccc1)Oc1ccc(F)cc1 (configuration not stated) | inactive: 1.1
CCN(CC)CCCOC(=O)C(O)(c1ccccc1)C1CCCCC1 (configuration not stated) | inactive: 1.2
CP(=O)(Nc1ccccc1F)Oc1ccccc1 (configuration not stated) | inactive: 1
Cc1ccc(C)c(NP(C)(=O)Oc2ccccc2)c1 (configuration not stated) | inactive: 1.2
Cc1cc(C)cc(OP(C)(=O)Nc2ccccn2)c1 (configuration not stated) | inactive: 1.1
COc1ccccc1OP(C)(=O)Nc1c(C)cccc1C (configuration not stated) | inactive: 1
Cc1nc2ccc3ccccc3c2s1.O=[N+]([O-])c1cc([N+](=O)[O-])c(O)c([N+](=O)[O-])c1 | inactive: 1.1
CP(=O)(NC(=O)Nc1ccccc1)Oc1ccccc1 (configuration not stated) | inactive: 1.2
CP(=O)(Nc1ccccn1)Oc1ccc(Cl)cc1 (configuration not stated) | inactive: 1.1
CCOP(C)(=S)SCC(=O)NC(C)C(=O)O (configuration not stated) | inactive: 1.2
CP(=S)(Nn1cnnc1)Oc1ccccc1 (configuration not stated) | inactive: 1.2
COc1ccc(OP(C)(=O)Nc2cccc(F)c2)cc1 (configuration not stated) | inactive: 1.2
COc1ccccc1OP(C)(=O)Nc1ccc(C)cc1 (configuration not stated) | inactive: 1.2
Cc1ccc(NP(C)(=O)Oc2ccccc2)c(C)c1 (configuration not stated) | inactive: 1.2
